Membrane permeability of cyclic peptides

Source: CycPeptMPDB (Li et al. 2023), which took these values from Townsend et al. 2020, doi:10.26434/chemrxiv.13335941.v1.

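Conditions beyond the assay type are not listed; see the original paper. Other peptides of the study may be missing here. Entries at the database's floor value (log10 P of -10) are not listed.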

PAMPA measures passive passage through an artificial lipid membrane. P is given in units of 10^-6 cm/s (from log10 values with two decimals); larger means faster passage.

| structure (SMILES) | PAMPA (10^-6 cm/s) |
|---|---|
| CC(C)C[C@@H]1NC(=O)[C@@H](C)N(C)C(=O)[C@@H]2CCCN2C(=O)[C@H](Cc2ccccc2)NC(=O)[C@H](CC(C)C)N(C)C(=O)[C@H]2CCCN2C(=O)[C@H](CC(C)C)N(C)C1=O | 7.4 |
| CC(C)C[C@@H]1NC(=O)C[C@H](Cc2ccccc2)NC(=O)[C@H]2CCCN2C(=O)[C@H](Cc2ccccc2)NC(=O)[C@@H](CC(C)C)NC(=O)[C@H]2CCCN2C(=O)[C@H](CC(C)C)N(C)C1=O | 1.1 |
| CC(C)C[C@@H]1C(=O)N[C@@H](Cc2ccccc2)C(=O)N2CCC[C@H]2C(=O)N[C@@H](Cc2ccccc2)CC(=O)N[C@H](CC(C)C)C(=O)N(Cc2ccccc2)CC(=O)N2CCC[C@H]2C(=O)N1C | 0.89 |
| CCCN1CC(=O)N[C@@H](CC(C)C)C(=O)N(Cc2ccccc2)CC(=O)N2CCC[C@H]2C(=O)N[C@H](CC(C)C)C(=O)N[C@@H](Cc2ccccc2)C(=O)N2CCC[C@H]2C1=O | 1.1 |
| CCCN1CC(=O)N[C@@H](CC(C)C)C(=O)N[C@@H](CC(C)C)C(=O)N2CCC[C@H]2C(=O)N(C)[C@H](CC(C)C)C(=O)N[C@@H](Cc2ccccc2)C1=O | 10 |
| CCCN1CC(=O)N(C)[C@@H](CC(C)C)C(=O)N(C)[C@H](CC(C)C)C(=O)N2CCC[C@@H]2C(=O)N(C)[C@@H](CC(C)C)C(=O)N[C@@H](Cc2ccccc2)C1=O | 13 |
| CC(C)C[C@H]1NC(=O)[C@@H](C)NC(=O)[C@H](Cc2ccccc2)NC(=O)[C@H](CC(C)C)N(C)C(=O)[C@H]2CCCN2C(=O)CN(Cc2ccccc2)C1=O | 1.3 |
| CC(C)C[C@@H]1C(=O)N[C@H](CC(C)C)C(=O)N2CCC[C@H]2C(=O)N[C@H](CC(C)C)C(=O)N[C@@H](Cc2ccccc2)C(=O)N[C@@H](C)C(=O)N1C | 1.1 |
| CC(C)C[C@@H]1NC(=O)[C@@H](CC(C)C)NC(=O)[C@H](C)NC(=O)[C@H](Cc2ccccc2)NC(=O)[C@@H](CC(C)C)N(C)C(=O)[C@H]2CCCN2C1=O | 4 |
| CC(C)C[C@H]1C(=O)N[C@@H](Cc2ccccc2)C(=O)N2CCC[C@H]2C(=O)N(C)[C@H](C)C(=O)N(Cc2ccccc2)CC(=O)N[C@@H](Cc2ccccc2)CC(=O)N2CCC[C@H]2C(=O)N1C | 1.5 |
| CC(C)C[C@H]1NC(=O)[C@H](C)NC(=O)[C@@H]2CCCN2C(=O)[C@H](Cc2ccccc2)NC(=O)CN(Cc2ccccc2)C(=O)[C@H]2CCCN2C(=O)[C@H](CC(C)C)N(C)C1=O | 1.3 |
| CC(C)C[C@@H]1C(=O)N[C@@H](Cc2ccccc2)CC(=O)N2CCC[C@H]2C(=O)N[C@H](CC(C)C)C(=O)N[C@@H](Cc2ccccc2)C(=O)N[C@H](C)C(=O)N1C | 1.3 |
| CC(C)C[C@@H]1NC(=O)C[C@H](Cc2ccccc2)NC(=O)[C@@H]2CCCN2C(=O)[C@H](Cc2ccccc2)NC(=O)[C@H](CC(C)C)N(C)C(=O)[C@@H]2CCCN2C(=O)[C@@H](CC(C)C)NC1=O | 4.1 |
| CC(C)C[C@H]1C(=O)N(C)[C@@H](CC(C)C)C(=O)N2CCC[C@H]2C(=O)N(C)[C@@H](CC(C)C)C(=O)N[C@@H](Cc2ccccc2)C(=O)N2CCC[C@H]2C(=O)N[C@H](C)C(=O)N1C | 5.2 |
| CC(C)C[C@@H]1NC(=O)C[C@H](Cc2ccccc2)NC(=O)[C@H]2CCCN2C(=O)[C@H](Cc2ccccc2)NC(=O)[C@@H](CC(C)C)NC(=O)[C@@H]2CCCN2C(=O)[C@H](CC(C)C)N(C)C1=O | 2.2 |
| CC(C)C[C@@H]1C(=O)N[C@@H](Cc2ccccc2)C(=O)N2CCC[C@H]2C(=O)N[C@@H](C)C(=O)N(C)[C@@H](CC(C)C)C(=O)N(Cc2ccccc2)CC(=O)N2CCC[C@@H]2C(=O)N1C | 1.1 |

A selection of 2 entries from above:

| structure (SMILES) | PAMPA (10^-6 cm/s) |
|---|---|
| CC(C)C[C@@H]1NC(=O)C[C@H](Cc2ccccc2)NC(=O)[C@H]2CCCN2C(=O)[C@H](Cc2ccccc2)NC(=O)[C@@H](CC(C)C)NC(=O)[C@@H]2CCCN2C(=O)[C@H](CC(C)C)N(C)C1=O | 2.2 |
| CCCN1CC(=O)N[C@@H](CC(C)C)C(=O)N(Cc2ccccc2)CC(=O)N2CCC[C@H]2C(=O)N[C@H](CC(C)C)C(=O)N[C@@H](Cc2ccccc2)C(=O)N2CCC[C@H]2C1=O | 1.1 |